Ab-14 light chain CDR variants: yeast mating affinities

Target peptide (SARS-CoV-2 spike, HR2 region): PDVDLGDISGINAS

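The parent was found by panning a naive human phage display library on the peptide. These sequences belong to a second round, designed from the earlier measurements on random variants of the parent. Group labels follow the data file (En: ensemble of fine-tuned language models; GP: Gaussian process model; HC: hill climbing; Gen: genetic algorithm; Gibbs: Gibbs sampling; a sequence that several methods proposed may carry one label only). AlphaSeq pools MATa yeast showing the antibodies with MATalpha yeast showing the peptide. Mating (16 h, 30 °C) was followed by selection of diploids and sequencing of their barcodes. The ratio of observed to expected reads was calibrated, replicate by replicate, on BCL2-family standards whose Kd was known from biolayer interferometry. The assay was run in six technical replicates.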

Each scFv is VH, a (GGGGS)3 linker, VL, as in the parent Ab-14, and differs from it in the CDRs of the light chain only.
VH: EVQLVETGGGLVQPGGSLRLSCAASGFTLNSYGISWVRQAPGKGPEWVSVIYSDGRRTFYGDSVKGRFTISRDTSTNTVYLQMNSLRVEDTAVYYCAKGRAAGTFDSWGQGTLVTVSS
VL: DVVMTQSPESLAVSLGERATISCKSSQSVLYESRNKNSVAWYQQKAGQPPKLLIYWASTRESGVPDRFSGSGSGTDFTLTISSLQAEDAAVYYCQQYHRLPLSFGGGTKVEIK

Variants are written as CDR1, CDR2 and CDR3 of the light chain (limits as in the source). Parent: KSSQSVLYESRNKNSVA, WASTRES, QQYHRLPLS.
Variants here have more than six changes.
The Kd shown is the geometric mean over detected replicates; a lower Kd is a better binder.
"nd" marks a missing value. The strain was present, yet no cells mated with the target were sequenced in any replicate, which points to weak or no binding.
Empty control strains, which show no peptide, gave a signal in 4% of pairings with all light chain designs; the median was 430 nM and 95% of these signals were weaker than 38 nM. No background was subtracted.
Values of this round are not directly comparable with the first-round values of the same sequences.
The authors' rule: three or more of the six replicates give a measured affinity, fewer mean a poor binder.
The parent sequence was in this pool as ten entries: three were never detected, three once, and four in most replicates, with averages from 2.2 nM to 240 nM.

For TIAQSMLYLSNIKNSIA / QAETRES / QQYHRLPIS [En_HC], the assay gave nd (0 of 6 replicates). The variant KISMSYRYESQNKNSIA / EMTRREN / QQYHRLPLS [En_HC] showed 1.2 nM (6 of 6 replicates). For KIHQSVLYEDRNINSVA / SASQRMS / QQYHRLPLS [GP_Gibbs], the assay gave 5.3 nM (6 of 6 replicates). The variant MIAAGLRGVGRNKNSVA / NAQTREE / QHYHRLPLS [En_HC] showed 7.4 nM (6 of 6 replicates). The variant KLSQITGHLSVSKNNVA / EMVTRVN / QQYARLPLS [En_Gen] showed 1.1 nM (6 of 6 replicates).

For HFSQVTMYGYWNTNSVA / QTSTREE / QQYDRLPLS [En_HC], the assay gave 11 nM (6 of 6 replicates). The variant KILQEVTGRSQNRNSVA / HNSTRED / QQYDRLPLI [En_HC] showed 870 nM (3 of 6 replicates). The variant KLWAYTQGLERNMQNIA / DGIYRVT / QQYGRLPLS [En_Gibbs] showed 1.1 nM (6 of 6 replicates). The variant QLGKNQVGDTLSQNAIA / HDALRVD / QQYFRLPLL [En_Gibbs] gave 2.3 nM (6 of 6 replicates). The variant IIDAIMFHGLKNASSIA / QAEERVN / QQYHHLPLT [En_Gen] showed 260 nM (6 of 6 replicates).

The variant DLTGMFNHAGQQQHSIA / NGGIKIE / QQYNRLPLA [En_Gibbs] showed 630 pM (6 of 6 replicates). For KIYASTMLESHDKNSIA / DLSTRGN / QQYHRLPLS [En_HC], the assay gave 11 nM (6 of 6 replicates). The variant KLGGVTEYEMRNLNSVA / QMTTRES / QQYHRLPLS [En_HC] showed 1.8 nM (6 of 6 replicates). The variant MMSQVTGSGTRHRNNVA / QTSMREP / QQYDRLPLI [En_Gen] showed 3.1 nM (6 of 6 replicates). For MFSQLVYTGQRTRNAVA / QASTREN / QQYHHLPLS [En_HC], the assay gave 21 nM (6 of 6 replicates).

For KLRQVTGYETYNKNSVA / QTSTRAS / QDYHRLPLS [En_HC], the assay gave 86 nM (6 of 6 replicates). For KLRQSTGYESRNKDSIA / DNSTRGR / QQYHRLPLS [En_HC], the assay gave 28 nM (6 of 6 replicates). The variant KMSGNLTDQENIKHSIA / EQVLAME / QQYQKLPLD [En_Gibbs] showed 3.2 µM (1 of 6 replicates). The variant QMYPFEVAIGEGTNNVA / HVSVRAL / QQYERLPLV [En_Gibbs] showed 14 nM (6 of 6 replicates). For KLMQSVNYGSRALNSVA / QMETRED / QQYHRLPLS [En_HC], the assay gave 4.0 nM (6 of 6 replicates).

The variant KLQWLWLYSSRNKNSVA / NASTRES / QQYHRLPLS [GP_Gibbs] gave 2.2 nM (6 of 6 replicates). The variant KAQQSELYEDRNQNSVA / NASQRLS / QQYHRLPLS [GP_Gibbs] showed 1.1 nM (6 of 6 replicates). The variant MLSEVLHMLGAKKNSIA / DLVMRAN / QQYHRLPLM [En_Gen] gave 77 nM (4 of 6 replicates). For KVEQKVMMGSRNKNSVA / HASVREQ / QQYHRLPLS [GP_Gibbs], the assay gave 4.3 nM (6 of 6 replicates). The variant MIYGAAMELGRAYNSIA / DNVTRYD / QQYERLPLS [En_Gen] gave 61 nM (6 of 6 replicates).

The variant RLLDWADGWTMKERNIA / DEDIRGA / QQYSHLPLA [En_Gibbs] showed 2.3 nM (6 of 6 replicates). The variant VLPDPMLMFEMQYNSIA / EGVQLME / QQYERLPLT [En_Gibbs] showed 77 nM (3 of 6 replicates). With KLGNQEQMNGMANQNVA / AMNTVVD / QEYHRLPLI [En_Gibbs] the result was 2.8 nM (6 of 6 replicates). For SIGGFMKSLSAHINSVA / DMTNRED / QQYDRLPLM [En_Gen], the assay gave 1.8 nM (6 of 6 replicates). For KLQWYNTYATYSASNIA / DGAQRLN / QQYMRLPLM [En_Gibbs], the assay gave 770 pM (6 of 6 replicates).

With KLSVSYGILEVERNSVA / QNSTREE / QQYDRLPLS [En_Gen] the result was 54 nM (1 of 6 replicates). The variant KWQWSWLYSSRNKNSVA / EGSTRES / QQYHRLPLS [GP_Gibbs] gave 11 nM (6 of 6 replicates). With KLRMSTAYLSENKNSVA / ELTTRGN / QQYFRLPLS [En_HC] the result was 3.8 nM (6 of 6 replicates). The variant KIRVHNLMFYQNENSIA / GQSNRIE / QQYYHLPLT [En_Gibbs] showed 28 nM (6 of 6 replicates). The variant QIMDRAEDGNHIAGQVA / DAAELIE / QQYQHLPLS [En_Gibbs] gave 37 nM (6 of 6 replicates).

With QLLMATMQGEYNRNSVA / HAQTRND / QSYHRLPLS [En_HC] the result was 12 nM (6 of 6 replicates). With MLGDTVMQGMYSRNSVA / QEETRAD / QQYHHLPLS [En_HC] the result was 3.4 nM (6 of 6 replicates). The variant HWSWSVDDESRNDNSVA / DASTRED / QQYHRLPLS [GP_Gibbs] gave 2.1 nM (6 of 6 replicates). The variant MVNQHDEGFKGVKDAIA / NAELREG / QHYGRLPLS [En_Gibbs] gave 9.5 nM (6 of 6 replicates).

For reference, 4 entries of the list once more:

CDR-L1	CDR-L2	CDR-L3	group	Kd (apparent)	replicates with signal
HWSWSVDDESRNDNSVA	DASTRED	QQYHRLPLS	GP_Gibbs	2.1 nM	6/6
QMYPFEVAIGEGTNNVA	HVSVRAL	QQYERLPLV	En_Gibbs	14 nM	6/6
KILQEVTGRSQNRNSVA	HNSTRED	QQYDRLPLI	En_HC	870 nM	3/6
SIGGFMKSLSAHINSVA	DMTNRED	QQYDRLPLM	En_Gen	1.8 nM	6/6

The measurements come from Li et al. 2023 (doi:10.1038/s41467-023-39022-2) through the FLAb antibody collection.